{"source": "patent US20240245770A1", "about": "“COMPOSITIONS AND METHODS FOR TREATING NEUROMUSCULAR DISORDERS” (The Regents of the University of California, priority 2019, published 2024)", "system": "Purified CD8+ T cells", "assay": "CD8 ELISA, IFN-γ secretion", "format": "cell-based, human", "method": "CD8 ELISA. CD8+ T cells were isolated from PBMC following manufacturer's instruction. Purified CD8+ T cells were left untreated, treated with IL-2 (1000 U/mL) or treated with the combination of IL-2 and anti-CD3/28 mAb (25 μl/ml) or IL-2+sAJ2 (Cells:sAJ2 1:20). After an overnight treatment at 37° C., the supernatants were harvested and the levels of IFN-γ secretion were measured using ELISA (Table 32).\nPBMC ELISA. CD8+ T cells were isolated from PBMC following manufacturer's instruction and they were left untreated, treated with IL-2 (1000 U/mL) or treated with the combination of IL-2+anti-CD3/28 antibodies (25 μl/mL) or IL-2+sAJ2 (Cells:sAJ2 1:20). After an overnight treatment at 37° C., the supernatants were harvested and the levels of IFN-γ secretion were measured using ELISA (Table 39).\nCD8 Elisa. CD8+ T cells were isolated from PBMC following manufacturer's instruction. Purified CD8+ T cells were left untreated, treated with IL-2 (1000 U/mL) or treated with the combination of IL-2 and anti-CD3/28 mAb (25 μl/ml) or IL-2+sAJ2 (Cells:sAJ2 1:20). After an overnight treatment at 37° C., the supernatants were harvested and the levels of IFN-γ secretion were measured using ELISA (Table 46).", "data": [{"substance": "Recombinant human IL-2", "values": [{"measurement": "IFN-γ secretion, ELISA, Mean", "setting": "CD8 (1:5) of P113 HA, overnight treatment at 37° C.", "result": 68.2}, {"measurement": "IFN-γ secretion, ELISA, CD8 1:5 Mean", "setting": "CD8 of H102 JC, overnight treatment", "result": 232.20}, {"measurement": "IFN-γ secretion, ELISA, CD8 1:5 Mean", "setting": "CD8 of H103 TC, overnight treatment", "result": 145.85}, {"measurement": "IFN-γ secretion, ELISA, CD8 1:5 Mean", "setting": "CD8 of H104 RS, overnight treatment", "result": 278.44}, {"measurement": "IFN-γ secretion (ELISA)", "setting": "CD8 straight, H131 JC, overnight treatment at 37° C.", "result": 64.48}, {"measurement": "IFN-γ secretion (ELISA)", "setting": "CD8 straight, H132 TC, overnight treatment at 37° C.", "result": 4.18}, {"measurement": "IFN-γ secretion (ELISA)", "setting": "CD8 straight, H133 WO, overnight treatment at 37° C.", "result": 72.78}, {"measurement": "IFN-γ secretion (ELISA)", "setting": "H80 DM CD8 (1:5)", "result": 283.94}, {"measurement": "IFN-γ secretion (ELISA)", "setting": "H81 JC (ALS) CD8 (1:5)", "result": 476.90}, {"measurement": "IFN-γ secretion (ELISA)", "setting": "H82 TC (healthy twin) CD8 (1:5)", "result": 84.00}, {"measurement": "IFN-γ secretion (ELISA)", "setting": "H84 JC CD8, Day1, 1:8 dilution", "result": 55.59}, {"measurement": "IFN-γ secretion (ELISA)", "setting": "H84 JC CD8, Day4, 1:8 dilution", "result": 222.88}, {"measurement": "IFN-γ secretion (ELISA)", "setting": "H85 TC CD8, Day1, 1:8 dilution", "result": 193.24}, {"measurement": "IFN-γ secretion (ELISA)", "setting": "H85 TC CD8, Day4, 1:8 dilution", "result": 437.00}, {"measurement": "IFN-γ secretion (ELISA)", "setting": "H88 JC CD8, Day1, 1:8 dilution", "result": 312.43}, {"measurement": "IFN-γ secretion (ELISA)", "setting": "H88 JC CD8, Day4, 1:8 dilution", "result": 386.48}, {"measurement": "IFN-γ secretion (ELISA)", "setting": "H88 JC CD8, Day10, 1:8 dilution", "result": 452.22}, {"measurement": "IFN-γ secretion (ELISA)", "setting": "H88 JC CD8, Day12, 1:8 dilution", "result": 567.09}, {"measurement": "IFN-γ secretion (ELISA)", "setting": "H89 TC CD8, Day1, 1:8 dilution", "result": 497.89}, {"measurement": "IFN-γ secretion (ELISA)", "setting": "H89 TC CD8, Day4, 1:8 dilution", "result": 618.99}, {"measurement": "IFN-γ secretion (ELISA)", "setting": "H89 TC CD8, Day10, 1:8 dilution", "result": 769.15}, {"measurement": "IFN-γ secretion (ELISA)", "setting": "H89 TC CD8, Day12, 1:8 dilution", "result": 663.28}, {"measurement": "IFN-γ secretion (ELISA)", "setting": "H115 JC CD8 (1:10), overnight treatment", "result": 204.4}, {"measurement": "IFN-γ secretion (ELISA)", "setting": "H116 TC CD8 (1:10), overnight treatment", "result": 414.4}, {"measurement": "IFN-γ secretion, ELISA, Mean", "setting": "H117 JC CD8, 1:5 dilution, overnight treatment", "result": 310.37}, {"measurement": "IFN-γ secretion, ELISA, Mean", "setting": "H117.1 JC (1:5), overnight treatment, Table 108", "result": 331.90}, {"measurement": "IFN-γ secretion, ELISA, Mean", "setting": "H117.1 JC (1:10), overnight treatment, Table 108", "result": 229.45}, {"measurement": "IFN-γ secretion, ELISA, Mean", "setting": "H118 TC CD8, 1:5 dilution, overnight treatment", "result": 239.40}, {"measurement": "CD8, Mean (Table 118A)", "setting": "H120 JC CD8, 1:5", "result": 140.63}, {"measurement": "CD8, Mean (Table 118A)", "setting": "H121 TC CD8, 1:5", "result": 40.68}, {"measurement": "CD8, Mean (Table 118A)", "setting": "H122 MV CD8, 1:5", "result": 152.29}, {"measurement": "IFN-γ secretion, ELISA, Mean", "setting": "H143 JC CD8, 1:5, overnight treatment at 37° C.", "result": 46.1}, {"measurement": "IFN-γ secretion, ELISA, Mean", "setting": "H144 TC CD8, 1:5, overnight treatment at 37° C.", "result": 6.2}, {"measurement": "IFN-γ secretion, ELISA, Mean", "setting": "H145 WO CD8, 1:5, overnight treatment at 37° C.", "result": 8.1}, {"measurement": "IFN-γ secretion, Mean", "setting": "H160 JC CD8 (1:5)", "result": 28.37}, {"measurement": "IFN-γ secretion, Mean", "setting": "H161 TC CD8 (1:5)", "result": 9.77}, {"measurement": "IFN-γ secretion, Mean", "setting": "H162 WO CD8 (1:5)", "result": 76.50}, {"measurement": "IFN-γ release", "setting": "H169 JC CD8 (1:5), ALS", "result": 316.25}, {"measurement": "IFN-γ release", "setting": "H170 TC CD8 (1:5), control twin", "result": 19.64}, {"measurement": "IFN-γ release", "setting": "H171 JC CD8 (1:5), ALS", "result": 0.00}, {"measurement": "IFN-γ release", "setting": "H172 TC CD8 (1:5), control twin", "result": 3.47}, {"measurement": "IFN-γ release", "setting": "H174 JC CD8 (1:5), ALS", "result": 0.00}, {"measurement": "IFN-γ release", "setting": "H175 TC CD8 (1:5), control twin", "result": 0.00}, {"measurement": "IFN-γ secretion, Mean", "setting": "H184 JC CD8 (1:5), Table 193", "result": 0.00}, {"measurement": "IFN-γ secretion, Mean", "setting": "H185 TC CD8 (1:5), Table 193", "result": 0.00}, {"measurement": "IFN-γ secretion, Mean", "setting": "H186 JC CD8 (1:5), Table 198", "result": 0.00}, {"measurement": "IFN-γ secretion", "setting": "H186 JC CD8 straight, Table 199", "result": 0}, {"measurement": "IFN-γ secretion, Mean", "setting": "H187 TC CD8 (1:5), Table 198", "result": 0.00}, {"measurement": "IFN-γ secretion", "setting": "H187 TC CD8 straight, Table 199", "result": 0}, {"measurement": "IFN-γ secretion, Mean", "setting": "H190 RS CD8 (1:5), Table 198", "result": 0.00}, {"measurement": "IFN-γ secretion", "setting": "H190 RS CD8 straight, Table 199", "result": 0}, {"measurement": "IFN-γ secretion, Mean", "setting": "H194 JC CD8 (1:5), Table 206", "result": 0.00}, {"measurement": "IFN-γ secretion", "setting": "H194 JC CD8 straight, Table 207", "result": 0.00}, {"measurement": "IFN-γ secretion", "setting": "H195 RS CD8 straight, Table 207", "result": 0.00}, {"measurement": "IFN-γ secretion, Mean", "setting": "H196 TC CD8 (1:5), Table 206", "result": 0.00}, {"measurement": "IFN-γ secretion", "setting": "H196 TC CD8 straight, Table 207", "result": 20.12}, {"measurement": "IFN-γ secretion, Mean", "setting": "H202 JC CD8 (1:5), Table 221", "result": 0.00}, {"measurement": "IFN-γ secretion", "setting": "H203 JC CD8 straight, Table 222", "result": 0.00}, {"measurement": "IFN-γ secretion, Mean", "setting": "H203 TC CD8 (1:5), Table 221", "result": 0.00}, {"measurement": "IFN-γ secretion", "setting": "H204 TC CD8 straight, Table 222", "result": 0.00}, {"measurement": "IFN-γ secretion, Mean", "setting": "H206 JC CD8 (1:5), with or without PTX, Table 226", "result": 0.00}, {"measurement": "IFN-γ secretion", "setting": "H206 JC CD8 straight, with or without PTX, Table 227", "result": 19.89}, {"measurement": "IFN-γ secretion, Mean", "setting": "H209 TS CD8 (1:5), with or without PTX, Table 226", "result": 0.00}, {"measurement": "IFN-γ secretion", "setting": "H209 TS CD8 straight, with or without PTX, Table 227", "result": 57.53}, {"measurement": "IFN-γ secretion, Mean", "setting": "H211 JC CD8 (1:5)", "result": 0.00}, {"measurement": "IFN-γ secretion", "setting": "H211 JC CD8 straight", "result": 44.81}, {"measurement": "IFN-γ secretion, Mean", "setting": "H212 TC CD8 (1:5)", "result": 0.00}, {"measurement": "IFN-γ secretion", "setting": "H212 TC CD8 straight", "result": 31.21}, {"measurement": "IFN-γ secretion, Mean", "setting": "H213 JC CD8 (1:5)", "result": 19.87}, {"measurement": "IFN-γ secretion", "setting": "H213 JC CD8 straight", "result": 25.92}, {"measurement": "IFN-γ secretion, Mean", "setting": "H214 TC CD8 (1:5)", "result": 2.53}, {"measurement": "IFN-γ secretion", "setting": "H214 TC CD8 straight", "result": 15.27}]}]}
